# Target: Smurf-1 (Homo sapiens (Human), UniProt Q9HCE7)
# The chains behind the UniProt entries cited, without tags or fusion partners.
# UniProt Q9HCE7, whole entry: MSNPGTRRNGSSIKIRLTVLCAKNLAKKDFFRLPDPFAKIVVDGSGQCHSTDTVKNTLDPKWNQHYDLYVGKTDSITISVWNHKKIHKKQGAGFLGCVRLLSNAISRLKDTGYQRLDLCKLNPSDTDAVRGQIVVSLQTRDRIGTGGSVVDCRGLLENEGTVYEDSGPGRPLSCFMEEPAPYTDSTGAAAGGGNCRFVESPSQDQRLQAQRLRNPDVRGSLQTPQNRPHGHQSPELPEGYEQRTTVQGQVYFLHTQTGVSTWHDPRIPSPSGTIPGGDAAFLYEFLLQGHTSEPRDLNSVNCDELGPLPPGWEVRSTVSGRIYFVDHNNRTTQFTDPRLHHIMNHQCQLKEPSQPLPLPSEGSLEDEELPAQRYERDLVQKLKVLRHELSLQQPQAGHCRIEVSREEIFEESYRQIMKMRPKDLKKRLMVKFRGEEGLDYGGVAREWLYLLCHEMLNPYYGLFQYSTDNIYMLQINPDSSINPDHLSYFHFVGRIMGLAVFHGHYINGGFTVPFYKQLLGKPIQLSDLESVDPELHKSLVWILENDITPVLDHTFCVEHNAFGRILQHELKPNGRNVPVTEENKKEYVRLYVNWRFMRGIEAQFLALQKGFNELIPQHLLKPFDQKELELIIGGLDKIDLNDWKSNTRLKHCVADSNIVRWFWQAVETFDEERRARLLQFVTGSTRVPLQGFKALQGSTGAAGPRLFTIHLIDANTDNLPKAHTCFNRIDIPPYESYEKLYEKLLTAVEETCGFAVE
# Assay: HECT E3 ligase autoubiquitinylation TR-FRET assay (Smurf-1)
# Format: biochemical
# From the text: To determine the HECT E3 ligase selectivity of the compounds, a panel of biochemical HECT E3 ligase autoubiquitinylation assays was employed (Smurf-1, Smurf-2, WWP1, WWP2, ITCH, Nedd4, Nedd4L and E6AP). The conjugation of ubiquitin to a protein substrate is a multistep process. In an initial ATP-requiring step, a thioester bond is formed between the carboxyl terminus of ubiquitin and an internal cystein residue of the ubiquitin-activating enzyme (E1). Activated ubiquitin is then transferred to a specific cystein residue of an ubiquitin-conjugating enzyme (E2). E2s donate ubiquitin to a HECT E3 ligase (E3) from which it is transferred to the substrate protein. HECT E3 ligases can auto-ubiquitinylate. This event is detected in the TR-FRET (Time-Resolved Fluorescence Resonance Energy Transfer) assay used in this panel. The reaction mix contains E1, E2, tagged-E3, biotin-conjugated ubiquitin, the compound and ATP in a suitable buffer and is incubated for 45 minutes to allow auto-ubiquitinylation of the E3 ligase. […] When these two fluorophores are brought together by a biomolecular interaction (in this case ubiquitinylation of the E3 ligase), a portion of the energy captured by the Cryptate during excitation is released through fluorescence emission at 620 nm, while the remaining energy is transferred to XL665. This energy is then released by XL665 as specific fluorescence at 665 nm. […]
substance,measurement,value
"5-((2R,4S)-4-(2-bromopropan-2-yl)tetrahydrofuran-2-yl)-N-(2-cyclohexyl-1,5-dimethyl-3-oxo-2,3-dihydro-1H-pyrazol-4-yl)-4-methylisoxazole-3-carboxamide and 5-((2S,4R)-4-(2-bromopropan-2-yl)tetrahydrofuran-2-yl)-N-(2-cyclohexyl-1,5-dimethyl-3-oxo-2,3-dihydro-1H-pyrazol-4-yl)-4-methylisoxazole-3-carboxamide [Example 23]",IC50,160 nM

# Source: patent US10195181B2, “Carboxamide derivatives” (Novartis AG, priority 2014, dated 2019)
